# Experimental data: patent publication US7628987B2, “Vectors derived from antibodies for transferring substances into cells” (Institut Pasteur, priority 1997, dated 2009)
# Experiments:
# HSV-1 TK^+ virus = format: cell-based, Herpes Virus Simplex type I; settings: HSV1 TK^+
# HSV-1 TK^− virus = format: cell-based, Herpes Virus Simplex type I; settings: HSV1 TK^−
compound,measurement,setting,value
"Nc1nc2c(ncn2COCCO)c(=O)[nH]1 [ACYCLOVIR ®, Acyclovir, reference compound]","optical density, infected cells",HSV-1 TK^+ virus; 10^−3 M /HSV,0.626 ± 0.050
same,"optical density, infected cells",HSV-1 TK^+ virus; 10^−4 M /HSV,0.587 ± 0.149
same,"optical density, infected cells",HSV-1 TK^+ virus; 10^−5 M /HSV,0.223 ± 0.017
same,"optical density, infected cells",HSV-1 TK^+ virus; 10^−6 M /HSV,0.235 ± 0.032
same,"optical density, infected cells",HSV-1 TK^− virus; 10^−3 M /HSV,0.289 ± 0.055
same,"optical density, infected cells",HSV-1 TK^− virus; 10^−4 M /HSV,0.173 ± 0.001
same,"optical density, infected cells",HSV-1 TK^− virus; 10^−5 M /HSV,0.169 ± 0.019
same,"optical density, infected cells",HSV-1 TK^− virus; 10^−6 M /HSV,0.239 ± 0.111

# Read-outs that look alike come from different tables or passages of the source.
